Values of other authors in paper PMC12275124.
pKd: −log10 of the molar value.

Chains of the proteins cited; added tags and fusions are not shown. Residues count along the entry.
UniProt Q99570, 327-860: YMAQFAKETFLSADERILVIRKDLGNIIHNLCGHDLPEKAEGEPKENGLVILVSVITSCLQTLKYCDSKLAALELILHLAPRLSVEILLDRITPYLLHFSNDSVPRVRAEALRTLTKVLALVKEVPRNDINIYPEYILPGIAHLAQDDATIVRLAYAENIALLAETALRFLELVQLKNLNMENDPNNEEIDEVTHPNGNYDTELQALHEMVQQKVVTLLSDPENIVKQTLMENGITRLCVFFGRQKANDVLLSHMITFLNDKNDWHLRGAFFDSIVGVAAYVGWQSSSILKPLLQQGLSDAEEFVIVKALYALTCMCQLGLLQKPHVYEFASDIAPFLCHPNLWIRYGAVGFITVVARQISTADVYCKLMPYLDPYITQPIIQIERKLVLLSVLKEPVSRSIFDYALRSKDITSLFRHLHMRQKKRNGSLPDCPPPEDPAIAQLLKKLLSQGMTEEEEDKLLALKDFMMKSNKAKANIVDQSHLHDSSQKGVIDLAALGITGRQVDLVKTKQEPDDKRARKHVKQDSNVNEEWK

Biological target: NRBF2 (Homo sapiens) (UniProt Q96F24)

Substance: VPS15 HSD (from UniProt Q99570)
- pKd: 7.40
